# Assay results as given in PubChem BioAssay AID504652 (National Center for Advancing Translational Sciences (NCATS), 2011).
# Sequences of proteins named here, by UniProt entry; tags and fusion partners are left off.
# UniProt P21728, whole entry: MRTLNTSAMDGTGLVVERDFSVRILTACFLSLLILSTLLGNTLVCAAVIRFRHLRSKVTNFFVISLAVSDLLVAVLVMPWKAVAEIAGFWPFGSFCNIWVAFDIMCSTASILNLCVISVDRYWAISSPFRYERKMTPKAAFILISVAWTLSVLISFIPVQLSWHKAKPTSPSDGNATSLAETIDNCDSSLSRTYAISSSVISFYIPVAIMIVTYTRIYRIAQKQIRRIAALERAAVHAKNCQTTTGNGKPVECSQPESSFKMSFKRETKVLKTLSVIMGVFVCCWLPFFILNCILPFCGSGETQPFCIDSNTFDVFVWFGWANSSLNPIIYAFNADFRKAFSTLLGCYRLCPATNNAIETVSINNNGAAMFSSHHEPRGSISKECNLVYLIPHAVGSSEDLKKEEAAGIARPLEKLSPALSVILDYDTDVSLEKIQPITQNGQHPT
# This is a selection; strong and weak results do not stand in their true shares. The source made the active and inactive calls. No stated cut-off is given here; in the data, active means activity change below about -30%; inactive means the rest.
# Target: D(1A) dopamine receptor (Homo sapiens) (UniProt P21728)
# Assay: Antagonist of Human D 1 Dopamine Receptor: qHTS
# Conditions: HEK293 TREx D1 cells, calcium flux, dopamine EC80; at 10 µM; stronger effect = lower value
# Procedure, shortened: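 Allosteric or orthosteric antagonism assessed as attenuation of the calcium response to EC80 dopamine, added 180 s after compound, in induced HEK293 Trex D1 cells loaded with no-wash calcium dye.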
# On the % scale 0 is the no-effect control and ±100 the full control effect.
row,Compound,"activity change, negative = inhibition"
1,CN1CCC(Nc2ccc(F)c(Cl)c2)CC1,inactive: 5.99%
2,CCCOc1ccc(C(=O)NCC2(N(C)C)CCCCC2)cc1,inactive: 13.1%
3,CC(C)(C)OC(=O)N1CCC(Nc2ccccc2)CC1,inactive: -13.3%
4,O=C(O)C1(Nc2ccccc2)CCN(Cc2ccccc2)CC1,inactive: 8.29%
5,N/C(=N\O)c1c(N)no[n+]1[O-],inactive: 1.75%
6,CCOC(=O)N1CCC(Nc2ccc(C)cc2)CC1,inactive: -3.53%
7,CCc1cc(C(=O)NCC2(N3CCCCC3)CCCCC2)sc1C,inactive: -5.62%
8,O=C(OC1CN2CCC1CC2)C1c2ccccc2C=Cc2ccccc21 (stereo not given),inactive: -8.55%
9,O=C(O)c1cccc(Nc2c([N+](=O)[O-])cc([N+](=O)[O-])cc2[N+](=O)[O-])c1,inactive: 14.9%
10,O=C(NCC1(N2CCOCC2)CCCCC1)c1cc(Br)ccc1Cl,inactive: 10.4%
11,COc1ccc(C(=O)NCC2(N3CCOCC3)CCCCC2)cc1OC,inactive: -5.55%
12,c1ccc(CN2CCC(Nc3ccccc3)CC2)cc1,inactive: -3.59%
13,O=C(NCC1(N2CCOCC2)CCCCC1)c1ccccc1,inactive: 4.22%
14,CCCN1CCC(Nc2cc(OC)cc(OC)c2)CC1,inactive: -0.601%
15,CN(C)C1(CNC(=O)c2cccc(C#N)c2)CCCCC1,inactive: -3.43%
16,O=C(NCC1(N2CCOCC2)CCCCC1)c1ccc([N+](=O)[O-])cc1,inactive: 7.88%
17,CC(C)(C)OC(=O)N1CCC(N(C(=O)c2ccccc2)c2ccc(Cl)cc2)CC1,inactive: -10.1%
18,O=C(NCC1(N2CCOCC2)CCCCC1)c1ccccc1[N+](=O)[O-],inactive: -10.5%
19,N#Cc1ccc(C(=O)NCC2(N3CCCCC3)CCCCC2)cc1,inactive: -25.3%
20,CCOC(=O)C(CC)C1=NC(C)(C)Cc2ccccc21.O=[N+]([O-])c1cc([N+](=O)[O-])c(O)c([N+](=O)[O-])c1 (stereo not given),inactive: 2.45%
